Experimental data published in patent US9234005B2 (priority 2011, dated 2016).

Protein sequences, listed by entry. Tags and fused reporters are not part of them. Residues count along the entry.
UniProt P29074, 499-604 S499G limits assumed: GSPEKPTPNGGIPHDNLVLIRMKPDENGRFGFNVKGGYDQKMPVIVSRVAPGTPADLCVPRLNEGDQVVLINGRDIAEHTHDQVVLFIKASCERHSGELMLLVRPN

What was measured:
PTPN4-PDZ = PTPN4-PDZ (Homo sapiens, UniProt P29074, S499G); experiment: NMR titration of peptide affinity for PTPN4-PDZ; format: binding; settings: for Kd: read-out: Kd for PTPN4-PDZ (dissociation constant, text), NMR titration
U373MG astrocytoma cells = format: cell-based, human

Structure (SMILES) | fold increase in affinity for PTPN4-PDZ compared to Cyto13-att (Cyto-att) (PTPN4-PDZ) [fold] | fold increase in affinity for PTPN4-PDZ compared to GluN2A-16 (PTPN4-PDZ) [fold] | Kd (PTPN4-PDZ) [µM] | cell death (% of dead cells among peptide loaded cells) (U373MG astrocytoma cells; 25 microM Tat-conjugated FITC peptide, 3 h, PI) [%] | factor by which affinity for PTPN4-PDZ dropped compared to the native GluN2A peptide (PTPN4-PDZ) | capacity to trigger death compared to parent peptide GluN2A-16 (U373MG astrocytoma cells; 3 h peptide treatment)
CC(C)[C@H](NC(=O)[C@H](CCC(=O)O)NC(=O)[C@@H](NC(=O)[C@H](CCC(=O)O)NC(=O)[C@H](CCCNC(=N)N)NC(=O)CNC(=O)[C@H](CO)NC(=O)[C@H](CCCCN)NC(=O)[C@H](Cc1c[nH]cn1)NC(=O)[C@H](CO)NC(=O)[C@H](CCC(=O)O)NC(=O)[C@H](Cc1c[nH]c2ccccc12)NC(=O)[C@@H](N)CO)[C@@H](C)O)C(=O)O | 160 | 40 | 1 | 66 |  | 
CC(C)[C@H](NC(=O)[C@H](CC(=O)O)NC(=O)[C@H](CO)NC(=O)[C@H](CCC(=O)O)NC(=O)CNC(=O)CNC(=O)[C@H](CO)NC(=O)[C@H](CCCCN)NC(=O)[C@H](Cc1c[nH]cn1)NC(=O)[C@H](CO)NC(=O)[C@H](CCC(=O)O)NC(=O)[C@H](Cc1c[nH]c2ccccc12)NC(=O)[C@@H](N)CO)C(=O)O |  |  | 85 |  | 2 | decreased by half
